Measured values from US7632666B2 (priority 2005, dated 2009).

The chains behind the UniProt entries cited, without tags or fusion partners. Where a name states a change or a piece, a line headed by the entry shows the natural chain unless it says otherwise.
UniProt P0A3G2, whole entry, looked up: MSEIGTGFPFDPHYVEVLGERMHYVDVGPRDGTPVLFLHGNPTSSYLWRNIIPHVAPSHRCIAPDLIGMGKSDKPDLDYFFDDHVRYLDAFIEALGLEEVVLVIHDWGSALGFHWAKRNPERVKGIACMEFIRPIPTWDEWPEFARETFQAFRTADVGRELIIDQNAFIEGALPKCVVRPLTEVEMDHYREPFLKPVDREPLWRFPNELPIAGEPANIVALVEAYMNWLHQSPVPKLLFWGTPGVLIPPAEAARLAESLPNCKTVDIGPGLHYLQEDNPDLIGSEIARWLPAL
UniProt D4Z2G1: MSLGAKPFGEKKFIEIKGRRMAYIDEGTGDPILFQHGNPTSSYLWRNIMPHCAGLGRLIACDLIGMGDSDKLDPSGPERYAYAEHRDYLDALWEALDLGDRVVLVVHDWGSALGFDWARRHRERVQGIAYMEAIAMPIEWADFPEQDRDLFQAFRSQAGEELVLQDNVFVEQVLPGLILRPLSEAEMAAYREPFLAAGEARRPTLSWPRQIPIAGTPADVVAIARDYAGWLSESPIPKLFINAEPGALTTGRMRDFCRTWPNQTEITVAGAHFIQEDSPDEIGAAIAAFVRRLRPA
UniProt P59337: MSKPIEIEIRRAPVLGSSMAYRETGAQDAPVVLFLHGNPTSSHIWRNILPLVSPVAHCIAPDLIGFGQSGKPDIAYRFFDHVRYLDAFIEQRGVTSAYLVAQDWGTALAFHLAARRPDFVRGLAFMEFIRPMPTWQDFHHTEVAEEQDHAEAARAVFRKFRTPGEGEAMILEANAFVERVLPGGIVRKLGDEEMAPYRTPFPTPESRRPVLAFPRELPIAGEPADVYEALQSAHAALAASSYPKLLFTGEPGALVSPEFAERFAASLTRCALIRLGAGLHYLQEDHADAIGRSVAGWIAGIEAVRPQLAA
UniProt P22643: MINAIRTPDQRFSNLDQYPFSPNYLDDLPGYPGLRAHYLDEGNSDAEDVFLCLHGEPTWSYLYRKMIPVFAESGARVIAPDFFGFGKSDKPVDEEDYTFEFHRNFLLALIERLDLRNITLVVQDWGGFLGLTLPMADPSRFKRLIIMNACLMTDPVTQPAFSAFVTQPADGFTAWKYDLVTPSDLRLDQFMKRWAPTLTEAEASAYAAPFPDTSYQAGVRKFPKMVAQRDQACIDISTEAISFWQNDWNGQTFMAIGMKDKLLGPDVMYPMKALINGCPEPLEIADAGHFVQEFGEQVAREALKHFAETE

Columns and labels:
[1] = molecular target: haloalkane dehalogenase DhaA (Rhodococcus rhodochrous, UniProt P0A3G2); assay: Chiral recognition (E-value), hydrolytic dehalogenation of racemic substrates; format: biochemical, Rhodococcus rhodochrous NCIMB 13064; conditions: racemic substrate; n.d. = not detected (activity < 0.2 nM · s^−1 · mg^−1 of enzyme)
[2] = molecular target: haloalkane dehalogenase LinB (Sphingobium indicum, UniProt D4Z2G1); assay: as above; format: biochemical, Sphingomonas paucimobilis UT26; conditions: racemic substrate; n.d. = not detected (activity < 0.2 nM · s^−1 · mg^−1 of enzyme)
[3] = molecular target: haloalkane dehalogenase DbjA (Bradyrhizobium diazoefficiens, UniProt P59337); assay: as above; format: biochemical, Bradyrhizobium japonicum USDA110; conditions: racemic substrate; n.d. = not detected (activity < 0.2 nM · s^−1 · mg^−1 of enzyme)
[4] = test system: haloalkane dehalogenases DmbA, DmbB, DmbC, DhlA, DhaA, DrbA, LinB, DhmA, DbjA and DbeA; conditions: with DmbA, reaction directly on the chiral carbon
[5] = molecular target: haloalkane dehalogenase DhlA (Xanthobacter autotrophicus, UniProt P22643); assay: Chiral recognition (E-value), hydrolytic dehalogenation of racemic substrates; format: biochemical, Xanthobacter autotrophicus GJ10; conditions: racemic substrate; n.d. = not detected (activity < 0.2 nM · s^−1 · mg^−1 of enzyme)

| Molecule | E-values DhaA [1] | E-values LinB [2] | E-values DbjA [3] | enantioselectivity [4] | E-values DhlA [5] |
| --- | --- | --- | --- | --- | --- |
| CC(=O)C(C)Br (racemic) | >200 | 3 | >200 | excellent enantioselectivity | – |
| epibromohydrine | 1.2 | 1.1 | 1.9 | – | 1.4 |
